How the values were obtained:
D(2) dopamine receptor [1] = target: T1, D(2) dopamine receptor (Rattus norvegicus, UniProt P61169); assay: Compound was evaluated for binding affinity towards DA D-2 receptor using radioligand [3H]SPI
D(2) dopamine receptor [2] = target: T1, D(2) dopamine receptor; assay: Inhibitory concentration required for displacing radioligand [3H]SPI from DA D-2 receptor

Amino acid sequences for entries named in this document (tags omitted).
UniProt P61169, whole entry: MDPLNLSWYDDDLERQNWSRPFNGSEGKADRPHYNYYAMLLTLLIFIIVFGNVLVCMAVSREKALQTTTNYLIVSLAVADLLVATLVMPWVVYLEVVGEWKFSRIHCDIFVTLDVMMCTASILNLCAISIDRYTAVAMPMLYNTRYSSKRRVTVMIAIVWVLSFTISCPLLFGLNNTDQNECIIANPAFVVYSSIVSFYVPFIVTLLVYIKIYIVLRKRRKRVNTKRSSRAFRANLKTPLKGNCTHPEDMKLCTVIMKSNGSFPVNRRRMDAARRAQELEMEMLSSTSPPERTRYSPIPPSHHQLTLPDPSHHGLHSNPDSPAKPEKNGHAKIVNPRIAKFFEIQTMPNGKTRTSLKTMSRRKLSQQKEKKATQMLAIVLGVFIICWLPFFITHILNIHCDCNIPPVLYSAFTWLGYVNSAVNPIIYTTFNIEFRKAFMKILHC

`CCN(CC)CCNC(=O)c1cc(Cl)c(N)cc1OC` [METOCLOPRAMIDE] gave a Ki (D(2) dopamine receptor [1]) of 104 nM and an IC50 (D(2) dopamine receptor [2]) of 820 nM.
